Measured values from PubChem BioAssay AID652197 (Broad Institute, 2013).
Only a part is listed here, and it is no random draw. Active and inactive are the calls of the source.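 The calls were made as follows: active = mean replicate inhibition of at least 30%, or all replicates individually reaching that 30% level; inactive = mean below 30% and not every replicate reaching it.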

The chains behind the UniProt entries cited, without tags or fusion partners. Where a name states a change or a piece, a line headed by the entry shows the natural chain unless it says otherwise.
UniProt Q9NZ08: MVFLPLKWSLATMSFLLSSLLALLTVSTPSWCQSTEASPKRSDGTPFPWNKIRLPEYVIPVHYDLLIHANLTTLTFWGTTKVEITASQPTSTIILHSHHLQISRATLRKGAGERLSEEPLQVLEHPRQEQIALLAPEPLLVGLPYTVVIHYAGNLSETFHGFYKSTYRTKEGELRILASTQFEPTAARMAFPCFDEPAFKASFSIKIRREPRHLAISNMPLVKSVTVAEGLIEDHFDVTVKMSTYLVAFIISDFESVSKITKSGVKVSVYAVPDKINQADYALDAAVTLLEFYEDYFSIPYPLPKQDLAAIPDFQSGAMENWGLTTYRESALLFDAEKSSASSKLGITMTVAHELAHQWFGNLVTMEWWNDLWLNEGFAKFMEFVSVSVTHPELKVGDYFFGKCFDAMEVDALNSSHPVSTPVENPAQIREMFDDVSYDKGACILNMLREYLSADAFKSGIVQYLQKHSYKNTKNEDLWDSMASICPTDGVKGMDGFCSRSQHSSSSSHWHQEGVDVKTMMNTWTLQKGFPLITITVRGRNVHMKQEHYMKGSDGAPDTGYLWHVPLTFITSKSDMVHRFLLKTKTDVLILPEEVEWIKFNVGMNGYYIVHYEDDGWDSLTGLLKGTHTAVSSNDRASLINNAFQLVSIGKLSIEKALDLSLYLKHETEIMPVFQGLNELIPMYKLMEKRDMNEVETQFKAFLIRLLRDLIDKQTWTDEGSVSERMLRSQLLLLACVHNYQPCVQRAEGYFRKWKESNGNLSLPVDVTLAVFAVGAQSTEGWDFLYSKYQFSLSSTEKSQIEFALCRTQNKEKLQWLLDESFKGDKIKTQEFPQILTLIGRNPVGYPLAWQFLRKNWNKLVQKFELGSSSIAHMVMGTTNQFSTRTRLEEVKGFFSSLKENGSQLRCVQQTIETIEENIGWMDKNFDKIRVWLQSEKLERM

What follows are molecules tested against Endoplasmic reticulum aminopeptidase 1 (Homo sapiens) (UniProt Q9NZ08) (assay: human ERAP1 aminopeptidase inhibitors, primary screen, biochemical, single point, plate reader (AID 652197;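 also: 0% = neutral control wells and 100% = L-leucinethiol positive control wells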)). Details: recombinant ERAP1, Leu-AMC fluorescence, 60 min; at 10.7 µM; hits give high values.

| Structure (SMILES) | inhibition |
| --- | --- |
| CCCCOc1ccc(C(=O)NCC2(N3CCCCC3)CCCCC2)cc1OC | inactive: 2.53% |
| COP(=O)(OC)N1CC1c1ccccc1 (stereo unspecified) | inactive: 1.1% |
| CC1CCNP(=O)(N(CCCl)CCCl)O1 (stereo unspecified) | inactive: -2.75% |
| O=C(O)C(O)c1ccc(N(CCCl)CCCl)cc1 (stereo unspecified) | inactive: -2.23% |
| O=[N+]([O-])c1ccc(Nc2ccc(Oc3ccc([N+](=O)[O-])cc3[N+](=O)[O-])cc2)c([N+](=O)[O-])c1 | inactive: -1.01% |
| Cc1cc(SC(NC=O)C(Cl)(Cl)Cl)ncn1 (stereo unspecified) | inactive: 2.58% |
| O=P(Nc1ccccn1)(c1cccc2ccccc12)c1cccc2ccccc12 | inactive: -2.51% |
| CCOC(=O)Nc1cccc([As](=O)(O)O)c1 | inactive: -1.21% |
| O=C(Nc1ccncc1[N+](=O)[O-])c1ccc([N+](=O)[O-])cc1[N+](=O)[O-] | inactive: 2.07% |
| O=C(O)C(=O)c1ccc(N(CCCl)CCCl)cc1 | inactive: -1.12% |
| COP1(=S)c2c(C)nn(CCC#N)c2N=C(c2ccc(F)cc2)N1C (stereo unspecified) | inactive: -2.56% |
| COC(=O)C1(C)COP(=O)(N2CCCC2)OC1 (stereo unspecified) | inactive: 0.037% |
| CCOC(=O)c1ccc(NC(=O)C(C)(CCl)SC)cc1 (stereo unspecified) | inactive: 2.84% |
| O=C(OC1CN2CCC1CC2)c1cccc([N+](=O)[O-])c1 (stereo unspecified) | inactive: 0.754% |
| COc1ccc2nc(NP(=O)(c3ccccc3)c3ccccc3)sc2c1 | inactive: 1.29% |
| COc1cc(I)ccc1[As](=O)(O)O | inactive: 1.33% |
| O=P1(N(CCCl)CCCl)OCCCN1CCCl (stereo unspecified) | inactive: 0.403% |
| O=P1(N(CCCl)CCCl)Nc2ccccc2N1 | inactive: 1.75% |
| COc1ccc(CN2/C(=N\P(=O)(Oc3ccccc3)Oc3ccccc3)Cc3ccccc3C2C2CC2)cc1 (stereo unspecified) | inactive: -0.402% |
| Cc1cc(=O)[nH]c(N[N+](=O)[O-])n1 | inactive: -5.29% |
| Cc1c2c(nc3ccccc13)SC(C(Cl)Cl)C2 (stereo unspecified) | inactive: -0.642% |

| Structure (SMILES) | inhibition |
| --- | --- |
| COc1ccc(N/C(=N/P(=O)(N2CCOCC2)N2CCOCC2)N2CCOCC2)cc1 | inactive: -2.87% |
| O=[N+]([O-])c1cc(Oc2ccc([N+](=O)[O-])cc2C(F)(F)F)cc([N+](=O)[O-])c1 | inactive: -4.06% |
| Cc1ccc2nc3c(c(C)c2c1)CC(C(Cl)Cl)S3 (stereo unspecified) | inactive: -2.37% |
| Cc1ccc(OP(=O)(Nc2ccc([N+](=O)[O-])cn2)Oc2ccc(C)cc2)cc1 | inactive: -0.218% |
| [N-]=[N+]=NC1CCCCC1NC(=O)c1cc([N+](=O)[O-])cc([N+](=O)[O-])c1 (stereo unspecified) | inactive: -0.567% |
| O=[As](O)(c1ccc(O)cc1)c1ccccc1O | inactive: 7.89% |
| C[As](=O)(O)c1cccc(C(=O)O)c1 | inactive: 2.32% |
| COc1cc(C(=O)NCC2(N3CCOCC3)CCCCC2)ccc1OCC(C)C | inactive: -0.288% |
| O=[N+]([O-])c1ccc(-c2cc([N+](=O)[O-])c(O)c([N+](=O)[O-])c2)cc1 | inactive: 1.66% |
| O=C(OC1CN2CCC1CC2)c1cccc2[nH]cnc12 (stereo unspecified) | inactive: 0.987% |
| CC(C)NC(=O)NP(=O)(Oc1ccccc1)Oc1ccccc1 | inactive: 3.69% |
| CC(C)c1ccc(OP(=O)(Nc2ccccn2)Oc2ccccc2F)cc1 (stereo unspecified) | inactive: 5.65% |
| COC(=O)C1(C)COP(=O)(N2CCCCCC2)OC1 (stereo unspecified) | inactive: -3.5% |
| O=C(O)COc1ccc([As](=O)(O)O)cc1[N+](=O)[O-] | inactive: -1.7% |
| CCOP1(=S)c2c(C)nn(CCC#N)c2N=C(c2ccccc2F)N1C (stereo unspecified) | inactive: 12% |
| O=P(Nc1nccs1)(Oc1ccccc1)Oc1ccccc1 | inactive: 1.22% |
| CN(C)C(=O)c1cc([N+](=O)[O-])cc2c1-c1c(cc([N+](=O)[O-])cc1[N+](=O)[O-])C2=O | inactive: -5.78% |
| CN(C(=O)Cc1ccc(Cl)c(Cl)c1)[C@H]1CC[C@@]2(CCCO2)C[C@@H]1N1CCCC1 | inactive: -5.24% |
| N#CCCN(C(=O)COC(=O)C(O)(c1ccccc1)c1ccccc1)c1ccc(F)cc1 | inactive: 0.461% |
| CN(C(=O)Cc1ccccc1)[C@@H]1CC[C@]2(CCCO2)C[C@H]1N1CCCC1 | inactive: -0.143% |
| CCOP1(=S)c2c(C)nn(CCC#N)c2N=C(c2ccc(F)cc2)N1C (stereo unspecified) | inactive: -0.712% |

| Structure (SMILES) | inhibition |
| --- | --- |
| NC(=O)Nc1ccc([As](=O)(O)O)cc1 | inactive: 5.82% |
| COc1cc(C(=O)NCC2(N3CCOCC3)CCCCC2)cc(Cl)c1OC(C)C | inactive: 3.44% |
| CS(=O)(=O)c1ccc(Cl)c(NC(=O)COC(=O)C(O)(c2ccccc2)c2ccccc2)c1 | inactive: -1.82% |
| O=C(OC1CN2CCC1CC2)c1ccc(Cl)cc1 (stereo unspecified) | inactive: -4.31% |
| CCOP(=O)(Nc1cccc2ccccc12)OCC | inactive: 8.88% |
| CCCOP(=S)(Nc1nc(N)cc(=O)[nH]1)OCCC | inactive: -3.88% |
| Cc1ccc(NCCc2c([N+](=O)[O-])cc([N+](=O)[O-])cc2[N+](=O)[O-])cc1 | inactive: -1.66% |
| Nc1cccc2c([As](=O)(O)O)cccc12 | inactive: 2.78% |
| O=P1(N(CCCl)CCCl)NCCC(C(F)(F)F)O1 (stereo unspecified) | inactive: -3.28% |
| CC(C)(C)C(=O)NC(Sc1ncccn1)C(Cl)(Cl)Cl (stereo unspecified) | inactive: 0.462% |
| CN(CCCl)Cc1cc(Cl)c(NC2=NCCN2)c(Cl)c1 | inactive: 1.23% |
| CCOP(=O)(Nc1ccc(C)cn1)OCC | inactive: 1.69% |
| CCC1=CC2Cc3nc4ccc(Cl)cc4c(N)c3C(C1)C2 (stereo unspecified) | inactive: 0.086% |
| CCOP(=O)(NC(=NC(C)c1ccccc1)NC(C)c1ccccc1)OCC (stereo unspecified) | inactive: 1.97% |
| CN(C(=O)Cc1ccc(Cl)c(Cl)c1)[C@@H]1CCCC[C@H]1N1CCCC1 | inactive: -1.53% |
| CC(C)/C=N\N=C(\N)N[N+](=O)[O-] | inactive: 1.74% |
| CN(C(=O)Cc1ccc(Cl)c(Cl)c1)C1CCCC[C@@H]1N1CCCC1 (stereo partly specified) | inactive: -4.66% |
| COc1ccccc1CNC(=O)COC(=O)C(O)(c1ccccc1)c1ccccc1 | inactive: 4.07% |
| O=C(/C=C/c1ccccc1)OC1CN2CCC1CC2 (stereo unspecified) | inactive: 1.13% |
